## Antibody variant affinities, Ab-14 light chain, assay B

Values reported by Li et al. 2023, doi:10.1038/s41467-023-39022-2 (FLAb copy).

The target is the same throughout: PDVDLGDISGINAS, from the HR2 region of SARS-CoV-2 spike.

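Designed CDR sequences, proposed from the first random library and measured here. Their group label is 14L_En_Gibbs (En: ensemble of fine-tuned language models; Gibbs: Gibbs sampling). The scFvs were displayed on barcoded MATa yeast, the peptide on MATalpha yeast. Binding brings cells together so that they mate, and sequencing counts the barcode pairs among the diploids. A regression on co-assayed BCL2-family reference pairs converts the normalised counts of each replicate to an apparent Kd. There are six technical replicates.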

Parent: Ab-14, a human scFv built as VH, three GGGGS repeats, VL. Only the CDRs of the light chain vary.
VH: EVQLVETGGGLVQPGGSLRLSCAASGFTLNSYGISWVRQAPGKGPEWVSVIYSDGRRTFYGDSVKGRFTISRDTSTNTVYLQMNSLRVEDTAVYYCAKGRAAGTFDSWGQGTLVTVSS
VL: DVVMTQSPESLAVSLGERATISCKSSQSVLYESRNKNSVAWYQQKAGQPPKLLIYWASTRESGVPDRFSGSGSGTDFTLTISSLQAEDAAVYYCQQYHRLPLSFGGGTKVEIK

The parent's light chain CDRs are KSSQSVLYESRNKNSVA, WASTRES, QQYHRLPLS; each variant's own CDRs replace them letter for letter.
Scale: log10 of Kd in nM, estimated from mating counts; low values are strong binders.
A pair that was not seen in that replicate is written "ND"; this usually means weak binding, but a binder can also be missed.
The parent sequence was in this pool as ten entries: three were never detected, three once, and four in most replicates, with averages from 0.34 to 2.37.
In the paper, a design with two or fewer of six values counts as a poor binder.
Three control strains display no target. For all light chain designs, 4% of the pairings with them gave a signal, with a median of 2.64 and one signal in twenty below 1.59, so weak values seen in few replicates may be background. Also given: how often the same scFv was detected with the empty control strains, with their mean in brackets.
Values of this round are not directly comparable with the first-round values of the same sequences.

CDR-L1	CDR-L2	CDR-L3	log10 Kd, replicates	control signals
ILLQVTTEHGAALNNIA	EGARRND	QQYARLPLV	1.69 1.24 1.19 0.92 1.40 1.76	6/18 (3.26)
KLQWQQYGENAMEAAIA	NEQTVAQ	QQYSKLPLT	ND ND ND ND ND ND	0/18
KLLDWEYGTTAMNSSIA	DAALESD	QQYDRLPLT	1.38 0.97 1.11 0.97 0.73 1.13	0/18
KLLDWYYGTTAMDSNIA	DQALEMD	QQYSRLPLT	1.81 0.67 1.56 1.38 1.77 2.56	0/18
KINERMRSGENQQHSIA	NATEIVK	QQYHNLPLG	2.22 2.05 1.09 2.50 1.55 2.36	2/18 (2.43)
DVTVVDNGASKIQNSVA	HGVEKCD	QQYSRLPLA	0.48 0.25 0.24 -0.26 0.23 0.53	2/18 (1.87)
GFSDSITETIADANSIA	DRDARDV	QQYSRLPLI	1.15 1.17 1.16 1.02 0.62 1.08	0/18
MMGMTKTMQSNEIGNVA	DMNERFA	QQYFQLPLS	0.44 0.53 0.46 0.50 0.06 0.29	2/18 (1.72)
MMSLCQNGYYQQNNSIA	DRNERAM	QQYGRLPLV	ND ND 2.53 1.91 1.99 2.09	0/18
GVTHTMESGKQAPNSIA	NAEQLQI	QQYQRLPLS	1.70 0.98 0.89 0.78 1.29 1.23	0/18
RVQINSGHSDMHWKSIA	SASIRAS	QQYARLPLE	1.06 1.47 0.94 0.89 0.70 1.01	0/18
QFDMHTIQIETIQSSIA	ETSCRAA	QSYVRLPLS	1.71 ND ND 1.99 ND 2.60	1/18 (1.35)
KLDLLNGEMDKGGDNIA	EVSTAGM	QHYWRLPLS	ND 1.92 ND 1.86 1.76 ND	0/18
QMRLLLENSGHRMNSIA	DETMKPD	QQYVRLPLH	ND 1.10 1.06 ND 3.35 ND	0/18
RIQDHHAEGEMRHSSIA	EESYRMD	QQYSRLPLA	0.82 0.60 0.27 0.27 0.31 0.78	0/18
NMRGGEGEIAQHGYNIA	GVDLRAA	QQYARLPLH	1.20 1.35 1.05 1.07 0.92 1.38	2/18 (3.38)
FMDFQHLEWQYDANNIA	GATLSVE	QQYGRLPLT	1.28 0.91 0.70 0.68 1.37 1.15	0/18
MISMMHASQYNESSSIA	NAEALNS	QQYHELPLS	1.98 2.36 2.68 2.89 2.60 2.22	1/18 (3.12)
QLMVFNLQAGSTQAAIA	DASHSTD	QQYQRLPLM	0.13 0.33 0.75 1.01 2.17 0.44	1/18 (1.35)
TLAQPQKELGYAKDAVA	DGSIRLG	QQYHRLPLV	0.32 0.31 0.18 0.56 0.14 0.39	0/18
KFAEQIMHVYQGANAIA	DATNKSA	QQYLRLPLM	1.07 1.07 0.29 0.56 0.63 0.71	1/18 (2.78)
QVQAFNEHSKDQTQAMA	EATMRDA	QQYERLPLS	2.32 0.82 1.36 1.02 1.14 1.31	1/18 (2.33)
YVSIDAAEGWNQQSAVA	GVSYKEK	QQYYKLPLS	2.90 ND ND 2.31 2.35 ND	0/18
KLQNFSQEHNGMWNNIA	DMTMKHT	QQYNRLPLV	1.16 0.83 0.70 1.03 1.23 1.69	0/18
SLSAMIQDWDSIHQNIA	EEHMKAQ	QQYNRLPLG	0.49 0.76 0.71 0.86 1.13 0.68	0/18
HLNLEYMQMMKDHNSIA	ETEHKTP	QQYFRLPIS	0.56 0.23 0.17 0.15 0.36 0.44	2/18 (2.00)
HVAMECAEEKNSYRNIA	DASMRLA	QQYVRLPLG	0.55 0.72 1.21 1.03 0.22 1.17	0/18
SVTRYTDENGLKMSSVA	GAANRMT	QQYHRLPLT	0.70 0.86 0.53 0.54 0.66 0.73	1/18 (2.32)
KVAQGIYEGKRHSHNIA	EVSHLCD	QQYARLPLE	ND ND 2.33 1.33 1.54 3.49	0/18
HVEHASLESNATMNSVA	NEACLAI	QQYHRLPLA	1.07 1.00 0.50 1.40 0.77 1.48	0/18
RYQMDDIEGKTARNNIA	DGAEVYR	QQYARLPLT	1.09 1.74 0.69 0.75 0.87 1.31	0/18
KLMLSLGESKQSERNIA	NMRVSVA	QQYDHLPLT	1.22 1.01 0.70 1.05 0.69 0.66	0/18
QMELMYEDVGHQMNSIA	DETMKPA	QQYLRLPLH	1.87 1.90 2.01 1.90 1.81 2.75	0/18
KFHMGHEAGQRKHDNVA	EANLRFS	QQYNRLPII	ND ND ND ND ND ND	0/18
TLFEGRSYWDGDERNIA	DARMRED	QDYARLPLV	ND 1.83 1.24 1.18 2.25 1.31	2/18 (1.76)
RMSVFMLTDENVWYSIA	NSAATRT	QQYQRLPLS	ND ND ND ND ND ND	0/18
SLYENYANGSQHTNSVA	DANQMMR	QHYNRLPLA	1.85 0.79 1.26 1.59 0.54 0.95	0/18

The opening 5 entries, copied out:

CDR-L1	CDR-L2	CDR-L3	log10 Kd, replicates	control signals
ILLQVTTEHGAALNNIA	EGARRND	QQYARLPLV	1.69 1.24 1.19 0.92 1.40 1.76	6/18 (3.26)
KLQWQQYGENAMEAAIA	NEQTVAQ	QQYSKLPLT	ND ND ND ND ND ND	0/18
KLLDWEYGTTAMNSSIA	DAALESD	QQYDRLPLT	1.38 0.97 1.11 0.97 0.73 1.13	0/18
KLLDWYYGTTAMDSNIA	DQALEMD	QQYSRLPLT	1.81 0.67 1.56 1.38 1.77 2.56	0/18
KINERMRSGENQQHSIA	NATEIVK	QQYHNLPLG	2.22 2.05 1.09 2.50 1.55 2.36	2/18 (2.43)